The target in test [1] is bovine testes FSH receptors (bovine, UniProt P35376). The test is described as follows: inhibition of 125I-hFSH binding to bovine testes FSH receptors. The procedure:
(§1) The concentrations of the analogs were determined by sandwich immunoassay using antibodies B105 and A113. The term "N.D." means not determined because concentrations of analog were not employed high enough to detect 50% inhibition. This was because the amounts of hFSH needed to bind to LH Receptors are several orders of magnitude greater than that of hCG and vice versa the amounts of hCG needed to bind to FSH receptors are several orders of magnitude greater than that of hFSH.
The ligation mixture was used to transform competent DH5-alpha strain E. coli. (23, 24). Transformed cells were selected by their abilities to grow on agar plates containing amphicillin. Ampicillin resistant colonies were chosen and plasmid minipreparations were made by the boiling lysis method (23, 24). The plasmid DNA was then tested for the presence of HindIII-ApaI endonuclease restriction sites. Plasmid DNA having the desired sequences was cleaved into three fragments (approximately 0.8 Kbp, 1.1 Kbp, and 3.4 Kbp). After the DNA was subjected to a dideoxy sequencing procedure to confirm that it encoded "G" (Table 1), the plasmid DNA was then cotransfected into COS-7 cells (obtained from the American Type Culture Collection) along with pSVL-hCG-alpha, a pSVL-based plasmid encoding the alpha-subunit (10, 21), using a DEAE-dextran procedure (10, 21, 23, 24). Beginning in 1–2 days and for a few days thereafter, the COS-7 cells produced significant amounts of the free subunits and the heterodimer. These were present in the culture media and heterodimer was detected using sandwich immunoassays employing monoclonal antibodies A113 and B105 (10). The protein was concentrated by ultrafiltration and monitored for its abilities to bind to LH and FSH receptors by radioligand receptor assays using ^125I-hCG and ^125I-hFSH as tracers and rat ovarian corpora lutea and bovine testes as sources of LH and FSH receptors as described (10).

In test [2] the target is rat luteal ovarian LH receptors (rat, UniProt P16235). The test is described as follows: inhibition of 125I-hCG binding to rat luteal ovarian LH receptors. The procedure:
as §1, with “These values were obtained by dividing the concentration of analog required to inhibit ^125I-hCG binding to rat luteal ovarian LH receptors or ^125I-hFSH binding to bovine testes FSH receptors by 50% into that required for recombinant hCG and recombinant hFSH, respectively. The concentrations” for “The concentrations”
An aliquot of the ligation mixture was taken and used to transform DH5-alpha strain E. coli. (obtained from Bethesda Research Laboratories, Gaithersburg, Md.). Plasmid DNAs from ampicillin-resistant DH5-alpha clones were screened by digestion with BglII (which is unique to vectors containing the cassette) and EcoRI (which cuts in the vector). Positive clones were identified by the presence of two fragments (approximately 0.8 Kbp and 2.9 Kbp). The sequence in the coding region of one of these plasmids, which lacked most of the beta-subunit cDNA due to excision of the PvuII fragment, was confirmed by dideoxysequencing as described (10). The remainder of the beta-subunit cDNA (encoding hCGβ amino acids 1–87) was restored by ligation of the 2.3 Kbp PvuI-PvuII fragment of this vector and the 2.9 Kbp PvuI-PvuII fragment from pSVL-hCG-beta'. The ligation mixture was used to transform DH5-alpha strain E. coli. and ampicillin resistant clones were obtained. […] After the DNA was subjected to a dideoxy sequencing procedure to confirm that it encoded "GT" (Table 1), the plasmid DNA was then cotransfected into COS-7 cells (obtained from the American Type Culture Collection) along with pSVL-hCG-alpha, a pSVL-based plasmid encoding the human glycoprotein hormone alpha-subunit (10, 21), using a DEAE-dextran procedure (10). […]

Where a chain is given by its changes, count along the chain named.

B1: recombinant hFSH (ligand)
chain 1: not shown
chain 2: NSCELTNITIAIEKEECRFCISINITWCAGYCYTRDLVYKDPARPKIQKTCTFKELVYETVRVPGCAHHADSLYTYPVALQCHCGKCDSDSTDCTVRGLGPSYCSFGEMKE
As to B1, the “activity relative to hFSH (FSH RECEPTORS; ratio of concentrations for 50% inhibition)” value in test [1] is 1 relative to recombinant hFSH.

B2: Analog "D" (ligand)
chain 1: not shown
chain 2: SKEPLRPRCRPINATLAVEKEGCPVCITVNITICAGYCPTMTRVLQGVLPALPQVVCNYRDVRFESIRLPGCPRGVNPVVSYAVALSCQCALCDSDSTDCGGPKDHPLTCDDPRFQDSSSSKAPPPSLPSPSRLPGPSDTPILPQ
Consider B2, for which the “activity relative to hCG (LH RECEPTORS; ratio of concentrations for 50% inhibition)” value in test [2] was 0.065 relative to recombinant hCG.

B3: recombinant hCG (ligand)
chain 1: not shown
chain 2: B2 chain 2 with D94R, S95R, D96S, S97T
For B3, the “activity relative to hCG (LH RECEPTORS; ratio of concentrations for 50% inhibition)” value in test [2] was 1 relative to recombinant hCG.

B4: Analog "G" (ligand)
chain 1: not shown
chain 2: SKEPLRPRCRPINATLAVEKEGCPVCITVNITICAGYCPTMTRVLQGVLPALPQVVCNYRDVRFESIRLPGCPRGVNPVVSYAVALSCQCALCRRSTTDCTVRGLGPSYCDDPR
B4: the “activity relative to hFSH (FSH RECEPTORS; ratio of concentrations for 50% inhibition)” value in test [1] is 0.29 relative to recombinant hFSH. Moreover, the “activity relative to hCG (LH RECEPTORS; ratio of concentrations for 50% inhibition)” value in test [2] is 0.62 relative to recombinant hCG.

B5: Analog "DG'" (ligand)
chain 1: not shown
chain 2: B4 chain 2 with R94D, R95S, S96D, T97S, D111S, D112F, P113G, R114E
With B5, in test [1], the “activity relative to hFSH (FSH RECEPTORS; ratio of concentrations for 50% inhibition)” value was 0.32 relative to recombinant hFSH.

(Values after US5508261, “Analogs of glycoprotein hormones having altered receptor binding specificity and activity and methods for preparing and using same” (University of Medicine & Dentistry of New Jersey, dated 1996).)
